Non-tubulin-bound c-src against tubulin-associated c-src (densitometry) data for one substance are collected here from article PMC2139850.

For the assay, the target named is tubulin (chicken (endogenous in avian marrow macrophages)). Kind of assay: co-IP.

Substance “pp60^c-src (from UniProt P00523 1-533) (enzyme)” gave a non-tubulin-bound c-src against tubulin-associated c-src (densitometry) of 32 % less.
